The text below walks through data of patent US7960408B2, “Quinolinyl and benzothiazolyl modulators” (Amgen Inc., priority 2000, dated 2011).

The chains behind the UniProt entries cited, without tags or fusion partners.
UniProt P37231, whole entry: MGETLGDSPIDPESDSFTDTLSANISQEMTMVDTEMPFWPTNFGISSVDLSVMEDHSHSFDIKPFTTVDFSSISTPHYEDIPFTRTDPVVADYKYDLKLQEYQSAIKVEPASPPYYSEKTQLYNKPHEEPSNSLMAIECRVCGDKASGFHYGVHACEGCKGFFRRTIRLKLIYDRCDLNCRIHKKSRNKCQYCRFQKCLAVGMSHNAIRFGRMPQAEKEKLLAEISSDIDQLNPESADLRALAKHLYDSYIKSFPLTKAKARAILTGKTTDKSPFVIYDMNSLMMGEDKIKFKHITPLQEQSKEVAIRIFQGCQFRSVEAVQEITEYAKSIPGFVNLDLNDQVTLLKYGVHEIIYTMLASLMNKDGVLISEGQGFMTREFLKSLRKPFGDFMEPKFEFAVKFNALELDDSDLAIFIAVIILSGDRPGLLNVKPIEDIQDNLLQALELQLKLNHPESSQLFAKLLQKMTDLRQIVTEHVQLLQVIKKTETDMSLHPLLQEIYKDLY

A value given as a limit tells only on which side of the number the result lay.

The assay concerns the target PPARγ (Homo sapiens, UniProt P37231). In words: PPARγ ligand binding assay utilizing [3H]-BRL 49653 as the radioligand. The note with it: read-out: PPARγ Binding IC50; concentration required to reduce by 50% the specific binding of [3H]-BRL 49653.

Broadly, the IC50 is the concentration at which inhibition is half-maximal. As for `Cc1ccc2nc(Nc3c(Cl)cc(NS(=O)(=O)c4ccc(Cl)cc4Cl)cc3Cl)sc2c1`, the IC50 is less than 1000 nM.
As to `O=S(=O)(Nc1cc(Cl)c(Nc2nc3cccc(Cl)c3s2)c(Cl)c1)c1ccc(Cl)cc1Cl`, the IC50 was less than 1000 nM.
On to `Cc1ccc2nc(Nc3c(Cl)cc(NS(=O)(=O)c4cc(C)c(Cl)cc4Cl)cc3Cl)sc2c1`, for which the IC50 is less than 1000 nM.
With `Cc1ccc(Cl)c2sc(Nc3ccc(NS(=O)(=O)c4ccc(C(F)(F)F)cc4Cl)cc3Cl)nc12` the figure was 1000 to 10000 nM; with `Cc1cc(S(=O)(=O)Nc2cc(Cl)c(Oc3cnc4ccccc4c3)c(Cl)c2)c(Cl)cc1Cl`, less than 1000 nM; with `Cc1cc(S(=O)(=O)Nc2cc(Cl)c(Nc3nc4cc(Cl)cc(Cl)c4s3)c(Cl)c2)c(Cl)cc1Cl`, less than 1000 nM.
For `O=S(=O)(Nc1cc(Cl)c(Nc2nc3cc(Cl)cc(Cl)c3s2)c(Cl)c1)c1ccc(C(F)(F)F)cc1Cl` the value was less than 1000 nM; for `Cc1cccc2sc(Nc3c(Cl)cc(NS(=O)(=O)c4ccc(C(F)(F)F)cc4Cl)cc3Cl)nc12`, less than 1000 nM.
For `Cc1ccc(Cl)c2sc(Nc3ccc(NS(=O)(=O)c4ccc(Cl)cc4Cl)cc3Cl)nc12` the value was 1000 to 10000 nM; for `O=S(=O)(Nc1cc(Cl)c(Nc2nc3cc(Cl)cc(Cl)c3s2)c(Cl)c1)c1ccc(Cl)cc1Cl`, less than 1000 nM.
With `O=S(=O)(Nc1cc(Cl)c(Nc2nc3cccc(Cl)c3s2)c(Cl)c1)c1ccc(C(F)(F)F)cc1Cl`, the half-maximal inhibitory concentration (IC50) was less than 1000 nM.
For `CS(=O)(=O)c1ccc2nc(Nc3c(Cl)cc(NS(=O)(=O)c4ccc(C(F)(F)F)cc4Cl)cc3Cl)sc2c1` the value was less than 1000 nM; for `O=S(=O)(Nc1cc(Cl)c(Nc2nc3ccc(Cl)cc3s2)c(Cl)c1)c1ccc(C(F)(F)F)cc1Cl`, less than 1000 nM.
